Amino acid sequences for entries named in this document (tags omitted). Residues count along the entry.
UniProt P25774, 115-331 limits assumed: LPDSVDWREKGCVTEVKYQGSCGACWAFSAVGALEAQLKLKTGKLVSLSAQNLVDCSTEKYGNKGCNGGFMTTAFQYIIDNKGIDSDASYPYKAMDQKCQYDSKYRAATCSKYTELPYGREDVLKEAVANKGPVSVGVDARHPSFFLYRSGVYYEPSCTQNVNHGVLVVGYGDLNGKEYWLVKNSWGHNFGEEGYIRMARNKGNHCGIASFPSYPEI

In ChEMBL document CHEMBL5726093, “Piperidine derivatives” (2019):

Target: Cathepsin S (Homo sapiens, UniProt P25774)
Assay: Cathepsin Enzyme Inhibition Assay: Enzyme activity is measured by observing the increase in fluorescence intensity caused by cleavage of a peptide substrate containing a fluorophore whose emission is quenched in the intact peptide.Assay buffer: 100 mM potassium phosphate pH 6.5, EDTA-Na 5 mM, Triton X-100 0.001%, DTT 5 mM.Enzymes (all at 1 nM): human and mouse Cathepsin S, Cat K, Cat B, Cat L.Subs

SMILES	IC50
Cc1ccc(-c2nc(CN3CCC(n4c(=O)[nH]c5cc(Cl)ccc54)CC3)c(C)[nH]2)cc1F	1960 nM
Cc1[nH]c(-c2ccc(C(F)(F)F)cc2)nc1CN1CCC(n2c(=O)n(C)c3ccccc32)CC1	280 nM
Cc1[nH]c(-c2ccc(C(F)(F)F)cc2)nc1CN1CCC(n2c(=O)[nH]c3ccccc32)CC1	420 nM
Cc1[nH]c(-c2ccc(Cl)cc2Cl)nc1CN1CCC(n2c(=O)n(C)c3ccccc32)CC1	3350 nM
Cc1ccc(-c2nc(CN3CCC(n4c(=O)[nH]c5cc(Cl)ccc54)CC3)c(C)[nH]2)cc1Cl	1020 nM
Cc1[nH]c(-c2ccc(Cl)c(Cl)c2)nc1CN1CCC(n2c(=O)n(C)c3ccccc32)CC1	875 nM
Cc1[nH]c(-c2ccc(Cl)c(F)c2)nc1CN1CCC(n2c(=O)n(C)c3ccccc32)CC1	1840 nM
Cc1[nH]c(-c2ccc(C(F)(F)F)cc2)nc1CN1CCC(n2c(=O)[nH]c3cc(Cl)ccc32)CC1	245 nM
Cc1oc(-c2ccc(C(F)(F)F)cc2)nc1CN1CCC(n2c(=O)n(C)c3ccccc32)CC1	2540 nM
